Results as given in BindingDB's records for doi:10.1002/1098-2396(20001215)38:4 (University of North Texas, 2000).

Protein sequences, listed by entry. Tags and fused reporters are not part of them.
UniProt P61169, whole entry: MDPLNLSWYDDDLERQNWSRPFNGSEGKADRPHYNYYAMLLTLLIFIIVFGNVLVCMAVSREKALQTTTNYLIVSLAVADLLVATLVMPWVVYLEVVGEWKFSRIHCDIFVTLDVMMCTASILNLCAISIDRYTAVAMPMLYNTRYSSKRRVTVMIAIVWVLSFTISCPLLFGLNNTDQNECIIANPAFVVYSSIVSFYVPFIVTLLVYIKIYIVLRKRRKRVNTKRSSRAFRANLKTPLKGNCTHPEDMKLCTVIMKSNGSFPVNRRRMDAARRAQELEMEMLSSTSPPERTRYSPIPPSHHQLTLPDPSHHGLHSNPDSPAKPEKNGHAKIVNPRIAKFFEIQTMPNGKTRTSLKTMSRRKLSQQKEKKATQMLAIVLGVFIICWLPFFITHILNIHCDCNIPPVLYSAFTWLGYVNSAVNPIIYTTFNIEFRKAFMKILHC

Biological target: D(2) dopamine receptor (Rattus norvegicus, UniProt P61169)

Ki: 0.25 nM
SMILES: OCCN1CCN(CC/C=C2/c3ccccc3Sc3ccc(C(F)(F)F)cc32)CC1 [Fluphenthixol]
